# Experimental data reported in ChEMBL document CHEMBL5380868, “Filling a nick in NIK: Extending the half-life of a NIK inhibitor through structure-based drug design” (Bioorg Med Chem Lett, 2023).
# Assay: Selectivity index, ratio of IC50 for inhibition of PKD1 (unknown origin) to IC50 for inhibition of NIK (unknown origin)
smiles,measurement,value
CN1C(=O)[C@](O)(C#Cc2cccc(-n3nc(C(N)=O)c4cccnc43)c2)[C@H]2C[C@H]21,Ratio IC50,100
